# Results as given in US12377083B2 (WUHAN LL SCIENCE AND TECHNOLOGY DEVELOPMENT CO., LTD., priority 2019, dated 2025).
# System: A2058 (human melanoma cells)
# Assay: A2058 cell scratch (migration) assay with LPA
# Format: cell-based
# Details: 10 μM LPA, scratch area at 24 h
# Protocol: The activity of the compounds disclosed herein at the cell level in vitro is evaluated by A2058 (human melanoma cells, Beina Bio, BNCC341099) cell scratch assay. The inhibitory activity of the compounds against LPAR1 can be reflected by inhibition of cell scratch healing.
# A2058 cells in a T75 cm^2 cell culture flask were digested and gently pipetted into single cells, adjusted to a cell density of 4×10^5 cells/mL, and then seeded into a 24-well plate. After the cell confluence reached 80%, the cell culture plate was taken out and the original medium was discarded. Serum-free medium was then added, and the cells were starved overnight in an incubator (37° C., 5% CO2). The cell culture plate was then taken out, and cell scratches were made along the diameter of the wells using a 200 μL pipette tip. The cell culture plate was then added with 500 μL of serum-free medium and then shaken gently to wash away the residual cells on the scratched surface, and this was repeated twice. The medium was discarded and 500 μL of 1% FBS medium containing the compound was then added, and the mixture was incubated at 37° C. for 30 min. […] Olympus CKX53 was used to observe the scratches, and MShot image analysis system was used to take pictures and measure the scratch area at 0 h. […] Cell migration inhibition rate was calculated according to the following formula: […]
smiles,measurement,value
"Cc1noc(-c2ccc(O[C@H]3CCC[C@H](C(=O)O)C3)cc2)c1COC(=O)N(C)C1CCCC1 (racemic) [Compound 4, (+/−)-(1S,3S)-3-(4-(4-(((cyclopentyl(methyl)carbamoyl)oxy)methyl)-3-methylisoxazol-5-yl)phenoxy)cyclohexane-1-carboxylic Acid]",Cell migration inhibition rate (%),B (B: 30-50%)
